Assays:
Rattus norvegicus = experiment: In vivo analgesic activity was determined by rat tail pressure test (RTP) in rat by subcutaneous administration, 30 minutes prior to challenge
Mus musculus = experiment: In vivo analgesic activity determined by Hendershot and Forsaith writhing test (H and F) in mice by subcutaneous administration, 30 minutes prior to challenge

COc1ccc2c3c1O[C@H]1[C@@H](O)C=C[C@H]4[C@@H](C2)N(C)CC[C@@]341.COc1ccc2c3c1O[C@H]1[C@@H](O)C=C[C@H]4[C@@H](C2)N(C)CC[C@@]341.O.O=P(O)(O)O.O=P(O)(O)O
ED50 (Rattus norvegicus): 13.5 mg/kg | ED50 (Mus musculus): 5.6 mg/kg

— ChEMBL document CHEMBL1122799, “Preparation of 7-(1,3,4-oxadiazolyl)-6,14-endo-etheno-6,7,8, 14-tetrahydrothebaines and related compounds as potential analgesics” (1984)
